Test results taken from ChEMBL document CHEMBL6114984, “Discovery of 2,4-diaminopyrimidine derivatives as potent inhibitors of FAK capable of activating the Hippo pathway for the treatment of esophageal squamous cell carcinoma” (Eur J Med Chem, 2025).
The source made the active and inactive calls. No cut-off for these calls is given here.

Tests used:
KYSE-450 = assay: Induction of cell senescence in human KYSE-450 cells at 400 nmol/L; format: functional, cell-based
KYSE-30 = assay: Induction of cell senescence in human KYSE-30 cells at 400 nmol/L; format: functional, cell-based

With `CNC(=O)c1ccccc1Nc1nc(Nc2ccc(N3CCOCC3)cc2OC)ncc1Cl` the Activity (KYSE-450) was “inactive” and the Activity (KYSE-30) was “inactive”.
